1 molecule from ChEMBL document CHEMBL1134429, “The development of a potential single photon emission computed tomography (SPECT) imaging agent for the corticotropin-releasing hormone receptor type” (Bioorg Med Chem Lett, 2001) can be followed below.

The target of the test is T1, Corticotropin-releasing factor receptor 1 (Rattus norvegicus, UniProt P35353).
T1 sequence (P35353 whole entry): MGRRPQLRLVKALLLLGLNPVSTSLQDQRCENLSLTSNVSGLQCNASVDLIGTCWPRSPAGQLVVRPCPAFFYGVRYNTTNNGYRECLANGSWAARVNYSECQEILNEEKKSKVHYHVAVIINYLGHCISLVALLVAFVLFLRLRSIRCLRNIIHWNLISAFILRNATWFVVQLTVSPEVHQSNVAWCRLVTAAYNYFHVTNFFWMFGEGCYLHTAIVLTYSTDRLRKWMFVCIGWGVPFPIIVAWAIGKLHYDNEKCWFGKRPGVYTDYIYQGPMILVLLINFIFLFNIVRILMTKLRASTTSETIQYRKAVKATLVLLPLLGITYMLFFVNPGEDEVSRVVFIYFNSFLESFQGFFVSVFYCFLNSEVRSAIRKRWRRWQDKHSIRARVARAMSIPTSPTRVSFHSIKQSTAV
Description: Binding affinity towards Corticotropin releasing hormone receptor type 1 of rat cerebellum using [125I]Tyr-sauvagine as radioligand. Type of test: tissue-based.

Structures are written as SMILES.

`CCCN(CC1CC1)c1nc(C)nc(Nc2c(Cl)cc(Br)cc2Cl)c1Cl`: the affinity, expressed as Ki, was 21 nM.

The Ki is a measure of affinity in units of concentration, obtained from inhibition or displacement. Lower therefore signals a stronger hold on the target.
